Our source for the Kd and ddG values is paper PMC6728138, “Quantitative mapping of protein-peptide affinity landscapes using spectrally encoded beads” (eLife, 2019).

For experiment [1], the target named is T1, calcineurin (CN) heterodimer, wild type: N-terminally 6-His-tagged human calcineurin A truncated at residue 400 with the calcineurin B subunit, Q08209. To be noted: modification not given.
Experiment [2] deals with T1, calcineurin (CN) heterodimer, wild …. To be noted: modification not given. This is another data set of the same source.
Experiment [3] shares this target. To be noted: modification not given. The source holds these as a separate data set.
The target is the same in experiment [4]. To be noted: modification not given. This is another data set of the same source.
The target is the same in experiment [5]. To be noted: modification not given. This is another data set of the same source.
For experiment [6] the target is unchanged. To be noted: modification not given. This is another data set of the same source.
For experiment [7] the target is unchanged. To be noted: modification not given. The source holds these as a separate data set.
For experiment [8] the target is unchanged. To be noted: modification not given. The source holds these as a separate data set.
Experiment [9] has the same target. To be noted: modification not given. The source holds these as a separate data set.
Experiment [10] shares this target. To be noted: modification not given. This is another data set of the same source.
Experiment [11] has the same target. To be noted: modification not given. This is another data set of the same source.
For experiment [12] the target is unchanged. To be noted: modification not given. The source holds these as a separate data set.
The target is the same in experiment [13]. To be noted: modification not given. This is another data set of the same source.
Experiment [14] concerns the target T2, calcineurin (CN) heterodimer, wild type: N-terminally 6-His-tagged human calcineurin A truncated at residue 400 with the calcineurin B subunit, Q08209;P63098. Put plainly: MRBLE-pep (peptides on spectrally encoded beads). To be noted: parent: est. 0.0 kcal/mol; read off a plot.
The target of experiment [15] is T1, calcineurin (CN) heterodimer, wild …. To be noted: modification not given. This is another data set of the same source.
Experiment [16] shares this target. To be noted: modification not given. This is another data set of the same source.
Experiment [17] has the same target. To be noted: modification not given. The source holds these as a separate data set.
Experiment [18] deals with T2, calcineurin (CN) heterodimer, wild …. Put plainly: MRBLE-pep (full calibration library, calibrated Kd). To be noted: chain shown with the change;; read off a plot.
The target of experiment [19] is T1, calcineurin (CN) heterodimer, wild …. To be noted: modification not given. This is another data set of the same source.
Experiment [20] shares this target. To be noted: modification not given. The source holds these as a separate data set.
The target is the same in experiment [21]. To be noted: modification not given. This is another data set of the same source.
Experiment [22] shares this target. To be noted: modification not given. The source holds these as a separate data set.
For experiment [23] the target is unchanged. To be noted: modification not given. The source holds these as a separate data set.
Experiment [24] shares this target. To be noted: modification not given. This is another data set of the same source.

Like-named read-outs stand apart in the source and are kept apart here.

One may read the Kd as the free concentration of one partner at which half of the binding sites on the other are occupied at equilibrium, for simple one-to-one binding. Turning to KRMEPIAIIITKTEIS, in experiment [1], the Kd was found to be 420 nM.

As to HPKIVLTGPHEE, in [2], the Kd amounted to 5740 nM.

For the molecule HPLIVITGPHEE, the Kd in experiment [3] stood at 240 nM.

With KRMEPPAIIITDTEIS, the dissociation constant (Kd) in experiment [4] is 680 nM.

Take IPKIIITYPGEE: the dissociation constant Kd in experiment [5] amounted to 300 nM.

Turning to ASGLSPRIEITPFHEL, in [6], the Kd was 2650 nM.

Regarding KRMEPIAIYITDTEIS, the equilibrium dissociation constant (Kd) in experiment [7] turned out to be 2060 nM.

With ASGLSPRIAITPSHEL, the Kd in [8] was 1640 nM.

Regarding ASGLSPRILITPSHEL, the Kd in experiment [9] was determined as 420 nM.

As for HPKIVITTPHEE, in experiment [10], the Kd was 1190 nM.

For IPKIIITYPTEE, the Kd in experiment [11] worked out at 20 nM.

As for KRMEPIAIIITRTEIS, in experiment [12], the Kd came to 160 nM.

Regarding IPKIIVTAPTEE, the Kd in experiment [13] turned out to be 10 nM.

As to AGPHPKIFITGPHEE [PKIVIT peptide (PVIVIT scaffold with V2K) V4F], the ddG in experiment [14] came to 0.1 kcal/mol.

Regarding KRMEPIAIIITDTTIS, the dissociation constant Kd in experiment [15] amounted to 700 nM.

With VPKIIITYPGEE, in experiment [16], the Kd was 680 nM.

For IPKIIVTYPDEE, the Kd in experiment [17] came to 350 nM.

On to LPRIEITPSH [NFATc2 PxIxIT peptide (WT …) S-1L], for which the Kd in [18] was 1000 nM.

For the molecule KRMEPPKIIITDTSIS, the Kd in [19] worked out at 130 nM.

Regarding TPKIVITGPHEE, the Kd in experiment [20] was 160 nM.

Turning to ASGLSPRIEISPSHEL, the Kd in [21] is 6340 nM.

With HPKIVITNPHEE, in experiment [22], the Kd was 3590 nM.

For ASGLSPRIEIFPSHEL, in experiment [23], the Kd came to 3800 nM.

As to MAGPHPSIVITGPHEE [PSIVIT], in [24], the Kd came out at 900 nM.
